# Experimental data as given in PubChem BioAssay AID652083 (The Scripps Research Institute Molecular Screening Center, 2013).
# Some of the results follow. Calls of active or inactive are those of the source.
# Tested on: Dopamine transporter
# Assay: PubChem AID 652083
# Settings: CEREP radioligand binding panel, % inhibition at 10 uM, stronger effect = higher value
compound,measurement,value
COC(=O)c1cc(Br)cnc1N1CCC(NC2CCCCC2)C(O)C1 (stereo unspecified),inhibition of specific binding,inactive: 18%
